Tests used:
Assay type in all cases: biochemical
AKT2 = AKT2 (Homo sapiens, UniProt P31751); assay: In vitro enzyme activity test (HTRF kinEASE TK), AKT2; conditions: read-out: AKT2 enzyme activity IC50, ATP 20 μM, enzyme 0.1 ng/well, reaction 50 min
AKT1 = AKT1 (Homo sapiens, UniProt P31749); assay: In vitro enzyme activity test (HTRF kinEASE TK), AKT1; conditions: read-out: AKT1 enzyme activity IC50, ATP 2 μM, enzyme 0.6 ng/well, reaction 50 min
AKT3 = AKT3 (Homo sapiens, UniProt Q9Y243); assay: In vitro enzyme activity test (HTRF kinEASE TK), AKT3; conditions: read-out: AKT3 enzyme activity IC50, enzyme 0.3 ng/well, reaction 50 min

Protein sequences, listed by entry. Tags and fused reporters are not part of them.
UniProt P31751, whole entry: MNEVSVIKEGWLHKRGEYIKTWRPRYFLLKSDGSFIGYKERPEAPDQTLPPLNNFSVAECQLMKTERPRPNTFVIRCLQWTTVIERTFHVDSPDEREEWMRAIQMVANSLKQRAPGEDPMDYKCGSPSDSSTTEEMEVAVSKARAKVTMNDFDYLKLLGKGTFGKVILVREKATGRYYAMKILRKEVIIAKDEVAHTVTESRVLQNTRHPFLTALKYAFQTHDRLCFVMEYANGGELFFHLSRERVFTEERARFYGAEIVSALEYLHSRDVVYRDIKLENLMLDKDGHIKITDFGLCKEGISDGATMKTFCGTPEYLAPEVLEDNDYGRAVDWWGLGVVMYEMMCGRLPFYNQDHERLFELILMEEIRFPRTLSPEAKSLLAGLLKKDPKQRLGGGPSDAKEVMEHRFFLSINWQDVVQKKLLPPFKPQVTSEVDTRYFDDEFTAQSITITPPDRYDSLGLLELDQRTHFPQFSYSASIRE
UniProt P31749, whole entry: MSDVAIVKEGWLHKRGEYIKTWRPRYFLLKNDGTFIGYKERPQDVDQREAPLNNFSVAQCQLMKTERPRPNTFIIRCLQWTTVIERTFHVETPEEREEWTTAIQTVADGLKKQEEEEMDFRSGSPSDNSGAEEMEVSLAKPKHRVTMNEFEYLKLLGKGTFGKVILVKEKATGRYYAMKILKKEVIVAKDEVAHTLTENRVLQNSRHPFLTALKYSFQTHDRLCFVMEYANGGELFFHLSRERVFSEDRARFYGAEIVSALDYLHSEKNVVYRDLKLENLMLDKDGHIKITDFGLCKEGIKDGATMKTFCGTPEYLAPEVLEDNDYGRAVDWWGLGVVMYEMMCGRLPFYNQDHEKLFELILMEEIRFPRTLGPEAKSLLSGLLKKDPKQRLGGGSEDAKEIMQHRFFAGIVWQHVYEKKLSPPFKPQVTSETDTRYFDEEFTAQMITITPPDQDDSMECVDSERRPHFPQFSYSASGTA
UniProt Q9Y243, whole entry: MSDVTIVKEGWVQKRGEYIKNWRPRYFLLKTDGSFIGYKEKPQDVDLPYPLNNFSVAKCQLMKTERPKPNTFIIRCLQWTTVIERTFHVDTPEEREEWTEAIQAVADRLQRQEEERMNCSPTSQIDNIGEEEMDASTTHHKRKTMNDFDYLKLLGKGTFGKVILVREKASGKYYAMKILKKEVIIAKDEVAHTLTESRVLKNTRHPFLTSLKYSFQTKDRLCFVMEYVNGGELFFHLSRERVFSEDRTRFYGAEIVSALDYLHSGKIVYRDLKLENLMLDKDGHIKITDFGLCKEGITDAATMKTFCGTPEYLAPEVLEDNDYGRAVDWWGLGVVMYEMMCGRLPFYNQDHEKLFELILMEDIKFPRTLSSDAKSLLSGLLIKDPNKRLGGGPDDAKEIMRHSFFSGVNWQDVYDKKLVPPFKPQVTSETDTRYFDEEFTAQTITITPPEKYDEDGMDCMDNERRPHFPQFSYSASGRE

An IC50 (AKT2) of 227 nM, an IC50 (AKT1) of 40 nM and an IC50 (AKT3) of 1.1 nM were found for `CC(C)NC[C@@H](C(=O)N1C2CCC1CN(c1ncnc3c1N(CC#N)CC(=O)N3)C2)c1ccc(Cl)cc1` in this work.

— patent US12617784B2, “AKT inhibitor” (Nanjing Chia Tai Tianqing Pharmaceutical Co., Ltd., priority 2019, dated 2026)
